Entries after “also recorded” stand apart in the source; their conditions may differ. Marks after values point to notes of the source that are not given here.
Experiments:
[1] = In vitro plasma and serum stability, human; type: in vitro ADME; details: for T1/2 PLASMA, HEPARIN HUMAN / T1/2 SERUM HUMAN: 37°C
Procedure: (§1) The stability of peptides is analysed in serum and plasma. The peptides are incubated at 37°C in plasma or serum and samples taken at approx. 9 regular intervals between t=0 and t=156 min are analysed by HPLC.
(§2) This is done by subsequent injections of the drug, plasma, and a co-injection with the drug and the plasma, followed by optimisation of the LC method parameters until a satisfactory separation is obtained. Three parallel experiments are performed for each plasma type.100 ml of peptide is mixed with 900 ml plasma at t = 0 and incubated at 37°C (drug-plasma mixture conc. 0.1 mg/ml). Samples of 100 ml of the drug-plasma mixture are removed at appropriate intervals and the degradation stopped by precipitation of the sample with 10 ml MeCN:TFA 50:50 v/v. A control plasma sample without the drug treated in the same manner is also taken. The plasma samples are centrifuged for 15 min. at 12,000 rpm (Eppendorf centrifuge) at ambient temperature. The resulting supernatant solution is transferred to 300 ml HP autosamler vials and analyzed by HPLC. The samples are analyzed in the following order: blank, the peptide at 0.1 mg/mL, the plasma without the peptide, the three parallel samples for t = 0, the three parallel samples for t = 5 min. the three parallel samples for t = 10 min. etc. And finally the three parallel samples for t = 0 are repeated to make sure that there have been no degradation or other failure during the analyses. The sample concentrations (peak height in mAU) are plotted vs. time and fitted to a function describing a mono exponential decay (Excel). […] Table 7. Results of in vitro stability test in plasma and serum, T1/2 in min and hrs

[2] = Stability in acidic solution (statement only); type: physicochemical
excisional wounds = test: Excisional wound healing in mice (planned); type: in vivo; details: topically or parenterally, 5 days
Procedure: To examine wound healing in vivo, Compound 2 and Compound 40 is administered topically (concentration range 10-9 - 10-6 mol/l in aqueous gel) and parenterally (10-10 - 10-6 mol/kg) two to four times daily to mice. Two round excisional wounds are created down the panniculus camosus with a 6-mm punch biopsy on the back skin of each mouse. After 5 days treatment with compound 2 and compound 40 the effect of skin is evaluated histologically by microscopy of biopsies and wound healing is measured by daily measurements of the diameter of the wound.

[3] = tested on: ventricular reentry arrhytmias; test: Ventricular reentry arrhythmias in dogs after coronary artery occlusion; type: in vivo
Procedure: Three dogs were studied in the anesthetized, open chest state to facilitate electrode placement for mapping. α-chloralose was given as a bolus (200 mg/kg) and then a constant Infusion at 8 mg/kg/hr (dissolved in polyethylene glycol, MW=200). The femoral vein and artery was cannulated for administration of fluid and drugs and for measurement of ascending aortic pressure, respectively.
The sinus node was clamped and the atrial appendage was paced with a programmable stimulator with constant current outputs at two times diastolic threshold. Pacing rate was ≥200 b/min to control heart rates. […] Endocardial Effective Refractory Period (ERP) was measured by the standard extrastimulus technique. Late ventricular diastolic threshold was measured during each intervention; the pacing current was four times threshold.
Test sites were chosen along the shaft of 16 pole needles (J. Kassell, Fayetteville, NC); each pole completely surrounds the needle shaft to prevent directionality of needle orientation from recording of adjacent Purkinje strands. Six bipolar electrograms (1 mm spacing) were recorded sequentially down the shaft of the needle by amplifying up to 1000 times, filtering from 3-1300 Hz and recording via oscilloscope during atrial pacing. Four intramural electrograms are recorded on each multipolar needle. […]

GJIC in cardiomyocytes = test: Patch clamp measurement of intercellular conductance (Gj) between cardiomyocyte pairs; type: cell-based, guinea pig; details: 10^-8 M, steady-state after about 400 seconds of stimulation, five experiments
[4] = In vitro plasma and serum stability, rabbit; type: in vitro ADME; details: 37°C
Procedure: as §1, §2

[5] = In vitro plasma stability, rat; type: in vitro ADME; details: 37°C
Procedure: as §1
This is done by subsequent injections of the drug, plasma, and a co-injection with the drug and the plasma, followed by optimisation of the LC method parameters until a satisfactory separation is obtained. Three parallel experiments are performed for each plasma type.[…] at t = 0 and incubated at 37°C (drug-plasma mixture conc. 0.1 mg/ml). Samples of 100 ml of the drug-plasma mixture are removed at appropriate intervals and the degradation stopped by precipitation of the sample with 10 ml MeCN:TFA 50:50 v/v. A control plasma sample without the drug treated in the same manner is also taken. The plasma samples are centrifuged for 15 min. at 12,000 rpm (Eppendorf centrifuge) at ambient temperature. The resulting supernatant solution is transferred to 300 ml HP autosamler vials and analyzed by HPLC. The samples are analyzed in the following order: blank, the peptide at 0.1 mg/mL, the plasma without the peptide, the three parallel samples for t = 0, the three parallel samples for t = 5 min. the three parallel samples for t = 10 min. etc. […]

Substance | Human plasma half life [1] [h] | T1/2 PLASMA, HEPARIN RABBIT [4] | other results
HPP-PHypGAGKKKKKK-OH | 0.033 | – | –
H-DY-DN-G-NH2 | 4.93 | – | T1/2 PLASMA, HEPARIN HUMAN [1]: 296min ± 34%
Ac-D-Tyr-D-Pro-D-4Hyp-Gly-D-Ala-Gly-NH2 [Compound 2] | >5 | * > 5 hrs | T1/2 PLASMA, HEPARIN HUMAN [1]: * > 5 hrs; T1/2 SERUM HUMAN [1]: * > 5 hrs; stability in plasma and serum compared with AAP10 ([1]; plasma and serum): considerably more stable; stability in acidic solution [2]: stable in acidic solution; skin structure (excisional wounds): will not affect skin structure alone; Effective refractory period ([3]; second dog, second site of induction (septal), throughout the testing period): 144 ms; mean arterial pressure (MAP) ([3]; three incremental IV doses): did not alter; also recorded: no change; ΔGj (relative change of intercellular conductance) (GJIC in cardiomyocytes): +120 ± 46%
HPP-PHypGAGKKKKKK-NH2 | >5 | – | –
[Pro^4]AAP10-NH2 | 0.083 | – | –
H-Gly-Ala-Gly-Hyp-Pro-Tyr-NH2 [AAP10, reference compound] | 0.217 | 9.5 min ±12% | half life ([1]; plasma and serum): less than 10 minutes; T1/2 PLASMA, HEPARIN RAT [5]: 8.2 min ± 13%; T1/2 SERUM RABBIT ([4]; serum): 2.7 min ± 4%
3-(4-hyd roxyphenyl)propionyl-Pro-Hyp-Gly-Ala-Gly-OH [HP5, reference compound] | – | 3.7 min ±1% | –
H-Gly-Pro-Hyp-Gly-Ala-Gly-OH [AAP, reference compound] | 0.13 | 4.4 min ±12% | T1/2 PLASMA, HEPARIN HUMAN [1]: 7.6 min ±6%
GNY | 1.05 | – | –
des-Hyp^4-[Asn^5]AAP-10-NH2 | 0.12 | – | –
AcGNY | 35.67 | – | –
CF3C(O)-AAP10-NH2 | 4 | 3.8 hrs ± 0.5% | T1/2 SERUM HUMAN [1]: 3.1 hrs ± 10%
Cyclo(retro-AAP-10-Asn) | >5 | * BR > 5 hrs | T1/2 SERUM HUMAN [1]: * > 5 hrs
H-AAP-10-K6-OH | – | – | Human plasma half life, min. ([1]; measured in EDTA plasma): 87* min.

Reference: patent EP1370276B1, “INTERCELLULAR COMMUNICATION FACILITATING COMPOUNDS AND THEIR MEDICAL USE” (Zealand Pharma A/S, priority 2001, dated 2002)
